The values that follow come from patent US9822179B2, “Recombinant TNF ligand family member polypeptides with antibody binding domain and uses therefor” (UNIVERSITAT STUTTGART, priority 2011, dated 2017).

Data set [1] concerns the target T1, EGFR (Homo sapiens, UniProt P00533).
T1 construct: EGF receptors were immunoprecipitated using a specific mouse monoclonal antibody; endogenous in cells; host or cells: Colo205 and Huh-7 cells
In words: Blocking of EGF-induced EGFR autophosphorylation, immunoprecipitation and anti-pTyr immunoblot. The format is cell-based. The settings on record: 2 nM, 50 ng/ml EGF. (In general: A western blot detects proteins with antibodies after separation by electrophoresis.)

Data set [2] relates to Colo205 cells. Put plainly: Growth of Colo205 cells over four days, MTT. The format is cell-based. The following applies: presence of neutralizing anti-TRAIL antibodies (mAb 2E5). As to the method:
After 16 h, cell viability was determined using MTT staining (Colo 205) or crystal violet staining (Huh-7) and data were normalized using bortezomib-treated cells as control (mean SEM, n=3). (B) 1×10^4 Colo205 cells per well were grown in 96-well plates using medium with 0.1% FCS. […] (C) 1×10^4 Huh-7 cells per well were grown in 96-well plates and treated with 20 ng/ml bortezomib or with a combination of bortezomib and 10 μM zVADfmk.

Data set [3] in a line: Pharmacokinetics in CD1 mice, 25 μg i.v., ELISA of serum samples. The data set is classed as in vivo. As to the method: 25 μg of protein were injected i.v. in CD1 mice and serum samples were taken at the depicted time points followed by detection of scTRAIL molecules via ELISA.
To this end, 25 μg of fusion proteins were injected i.v. in CD1 mice and serum samples were analyzed at certain time points after injection by ELISA assay (FIG. 19).

Data set [4] concerns Jurkat cells. In words: Target-independent induction of cell death, Jurkat, MTT assay. The format is cell-based. The following applies: not sensitized; SEQ ID NO: 102 compared to KillerTRAIL. As to the method: Cell viability was determined using crystal violet staining. Results from four independent experiments are shown (mean±S.E.M.). (B) Jurkat cells (1×10^5/well) were used for a similar experiment as described in (A). Jurkat cells were not sensitized. Results from three independent experiments are shown (mean±S.E.M.). Viability of Jurkat cells was determined using the MTT assay.
As a positive control, cells were killed with 0.25% Triton X-100. Cell death assays with Huh-7 and HepG2 cells were performed in the absence (FIG. 6, Jurkat cells) or presence of Bortezomib (FIG. 7, Huh-7: 250 ng/ml, FIG. 6, HepG2: 500 ng/ml, FIG. 18, Huh-7: 250 ng/ml), Selleck Chemicals, Houston, Tex.). Bortezomib was added 30 min prior incubation with the proapoptotic ligands to sensitize cells for the induction of cell death (FIGS. 6, 7). Alternatively, cells were preincubated for 30 min with the indicated concentrations of TRAIL fusion proteins followed by addition of serial dilutions of Bortezomib (FIG. 8). TRAIL only treated cells are shown in each panel for the applied TRAIL concentration (Bortezomib 0 ng/ml) (FIG. 8). After 16 h incubation, cell viability was determined either by crystal violet staining (Huh-7, HepG2) or the MTT method (Jurkat) (Wuest et al., 2002). In the latter case a lysis buffer consisting of 15% SDS in DMF/H2O (1:1), pH 4.5 (with […]) acetic acid) was used.

A short description of data set [5]: Alanine aminotransferase (ALT) activity in plasma of treated mice. The following applies: i.p. The format is in vivo, CD1 mice. As to the method:
FIG. 9: EGFR specific TRAIL fusion proteins lack hepatotoxic activity. Groups of 3 CD1 mice were treated intraperitonally with indicated fusion proteins or control reagents: negative control: PBS; positive control: aggregated FasL (CD95L) fusion protein. • (A) Plasma samples were prepared after 4 h and 24 h and the activity of alanine aminotransferase (ALT) was assayed using an enzymatic assay (Bioo Scientific, Austin, Tex.). Dashed line indicates upper normal level of ALT (physiologic range in adult human: 35-50 U/L). (B) Mice were sacrificed after 24 h except for positive control (animals treated with an aggregated FasL (CD95L) fusion protein show phenotypic signs of severe systemic toxicity after 2-4 hrs and die after ˜5 hrs, samples were taken after 4 hrs) and liver biopsies were taken for determination of caspase-3 activity using a specific AMC-coupled peptide substrate (Enzo Lifesciences, Lörrach, Germany).
Blood samples were taken from the tail after 4 h and 24 h and incubated on ice. […] Activity of alanine aminotransaminase was determined by an enzymatic assay (BIOO Scientific, Austin, Tex., USA). […] 10 μg of protein were analyzed by conversion of the fluorogenic substrate Ac-DMQD-AMC (Enzo Life Sciences). Caspase activity in PHH and Huh-7 cells was determined as published by Seidel et al. (Hepatology 2005, 42:113-120). […]

The test system of data set [6] is Huh-7 hepatocarcinoma cells. In words: Caspase activation in Huh-7 cells. The data set is classed as cell-based. The settings on record: combination with bortezomib. The source says:
(§1) FIG. 14: In vitro tolerance of TRAIL fusion proteins to primary tissues. […] Asterisks indicate statistical significance.
(§2) Caspases were detected by immunoblotting using a rabbit polyclonal antibody against cleaved caspase-3 (Cell Signaling Technology). GAPDH as internal control was detected with a rabbit polyclonal antibody (Cell Signaling Technology). HRP-conjugated secondary antibodies (Zymed Laboratories, San Fransisco, Calif., USA) and ECL were used for visualization.
(§3) Blood samples were taken from the tail after 4 h and 24 h and incubated on ice. Clotted blood was centrifuged (10 000 g, 10 min, 4° C.) and serum samples were stored at −80° C. Activity of alanine aminotransaminase was determined by an enzymatic assay (BIOO Scientific, Austin, Tex., USA). To determine caspase-3 activity in the liver tissue, mice were sacrificed after 24 h (positive control after 5 h) and liver biopsies were taken. Homogenates were prepared in lysis buffer (200 mM NaCl, 20 mM Tris, 1% NP-40, pH 7.4). 10 μg of protein were analyzed by conversion of the fluorogenic substrate Ac-DMQD-AMC (Enzo Life Sciences). Caspase activity in PHH and Huh-7 cells was determined as published by Seidel et al. (Hepatology 2005, 42:113-120).

Data set [7] concerns primary human hepatocytes (PHH). In words: Caspase activation in primary human hepatocytes. The data set is classed as cell-based. The settings on record: combination with bortezomib.
Source text: as §1, §2, §3

In data set [8] the test system is EGFR-positive Huh-7 cells. In words: Blocking of Cetuximab binding to cells, flow cytometry. The following applies: preincubation with 0.5 μM. As to the method:
“scFv” represents an anti-EGFR specific antibody fragment used for competition.
5×10^5 cells were suspended in PBA buffer (PBS, 0.025% BSA, 0.02% sodium azide) and incubated for 1 h at 4° C. with the indicated scTRAIL fusion proteins (2 μg/ml). After washing the cells three times with PBA buffer, bound fusion proteins were detected by anti-human TRAIL mAb MAB687 (2.5 μg/ml, R&D Systems) and fluorescein isothiocyanate-labelled rabbit anti-mouse IgG Ab (1:200, Sigma-Aldrich), followed by three washing steps with PBA each. […] Expression of TRAIL receptors was detected by anti-TRAIL R1 mAb MAB347 and anti-TRAIL R2 mAb MAB6311 (4 μg/ml each, R&D Systems) in conjunction with anti-mouse IgG-FITC. EGFR expression was detected by a phycoerythrin-labelled anti-human EGFR mAb sc-101 (4 μg/ml, Santa Cruz Biotech., Santa Cruz, Calif.) (see FIG. 4).
For orientation: A flow cytometer gives signals particle by particle.

B1: SEQ ID NO: 102: EGFR-specific VH-VL-scTRAIL fusion protein with linker L shortened to GGGGS; divalent, dimeric TRAIL fusion protein (protein)
chain: MDWTWRVFCLLAVAPGAHSLEASDYKDDDDKGAEVQLVESGGGLVQPGGSLRLSCAASGFSLTNYGVHWVRQAPGKGLEWLGVIWSGGNTDYNTPFTSRFTISRDNSKNTLYLQMNSLRAEDTAVYYCARALTYYDYEFAYWGQGTTVTVSSGGGGSDIQLTQSPSFLSASVGDRVTITCRASQSIGTNIHWYQQKPGKAPKLLIKYASESISGVPSRFSGSGSGTEFTLTISSLQPEDFATYYCQQNNNWPTTFGAGTKLEIKRAAAEFTRGTSEETISTVQEKQQNISPLVRERGPQRVAAHITGTRGRSNTLSSPNSKNEKALGRKINSWESSRSGHSFLSNLHLRNGELVIHEKGFYYIYSQTYFRFQEEIKENTKNDKQMVQYIYKYTSYPDPILLMKSARNSCWSKDAEYGLYSIYQGGIFELKENDRIFVSVTNEHLIDMDHEASFFGAFLVGGGGSGGGSTSEETISTVQEKQQNISPLVRERGPQRVAAHITGTRGRSNTLSSPNSKNEKALGRKINSWESSRSGHSFLSNLHLRNGELVIHEKGFYYIYSQTYFRFQEEIKENTKNDKQMVQYIYKYTSYPDPILLMKSARNSCWSKDAEYGLYSIYQGGIFELKENDRIFVSVTNEHLIDMDHEASFFGAFLVGGGGSGGGSTSEETISTVQEKQQNISPLVRERGPQRVAAHITGTRGRSNTLSSPNSKNEKALGRKINSWESSRSGHSFLSNLHLRNGELVIHEKGFYYIYSQTYFRFQEEIKENTKNDKQMVQYIYKYTSYPDPILLMKSARNSCWSKDAEYGLYSIYQGGIFELKENDRIFVSVTNEHLIDMDHEASFFGAFLVG
modifications: VH-VL(EGFR)-scTRAIL fusion protein
For the molecule B1, the “blocking of EGF-induced EGFR autophosphorylation” value in data set [1] (Colo205 cells) and in data set [1] (Huh-7 cells) was “Functional blocking of EGF-stimulated receptor activation” throughout. For the same molecule, the “growth inhibition when apoptosis is prevented” value in data set [2] is “only a marginal growth inhibition”. Further, in data set [3], the “in vivo serum half-life” value is listed as “about 3 hours”. In addition, the “apoptosis-inducing activity on Jurkat cells” value in data set [4] is recorded as “higher apoptosis-inducing activity”. The ALT values result in data set [5] (4 hrs after application) is listed as “only a transient marginal increase in ALT values to the upper normal limit”; in data set [5] (after 24 hrs) it was “baseline ALT”. Also, the “cleaved caspase-3 by immunoblot” value is recorded as “robust caspase processing” in data set [6] and “no detectable caspase activation” in data set [7]. In addition, in data set [8], the “blocking of binding of labelled Cetuximab” value is given as “can be blocked”.
